# Source: patent publication US4198415A, “Prolactin inhibiting octahydro pyrazolo[3,4-g]quinolines” (Eli Lilly and Company, priority 1979, dated 1980)
# Where “and” joins values, the source holds several entries; their conditions need not be identical. Equal entries are not always repeated. Structures can show the parent of a compound that is named as a salt.
# Key:
# [1] = test system: 6-hydroxydopamine-lesioned rats; assay: turning behavior in 6-hydroxydopamine-lesioned rats (rat turning test, Parkinsonism); settings: in vivo, ip, dihydrochloride
# Method: In this test, nigroneostriatal-lesioned rats are employed, as prepared by the procedure of Ungerstedt and Arbuthnott, Brain Res, 24, 485 (1970). A compound having dopamine agonist activity causes the rats to turn in circles contralateral to the side of the lesion. After a latency period, which varies from compound to compound, the number of turns is counted over a 15-minute period.
# The compounds were dissolved in water and the aqueous solution injected into the rat by the intraperitoneal route at dose levels of 1 mg/kg. and 100 mcg/kg.
# prolactin = assay: inhibition of prolactin secretion in reserpine-treated male rats (serum prolactin); design: species or system rat (Sprague-Dawley); settings: rat, in vivo; dihydrochloride
# Method: Adult male rats of the Sprague-Dawley strain weighing about 200 g. were housed in an air-conditioned room with controlled lighting (lights on 6 a.m.-8 p.m.) and fed lab chow and water ad libitum. Each rat received an intraperitoneal injection of 2.0 mg. of reserpine in aqueous suspension 18 hours before administration of the test drug. The purpose of the reserpine was to keep prolactin levels uniformly elevated. The compounds under test were dissolved in 10 percent ethanol, and were injected intraperitoneally at doses of 50 mcg/kg and 0.5 and 5 mg/kg. Each compound was administered at each dose level to a group of 10 rats, and a control group of 10 intact males received an equivalent amount of 10 percent ethanol. One hour after treatment, all rats were killed by decapitation, and 150 μl aliquots of serum were assayed for prolactin.
smiles,measurement,setting,value
"CCCN1CCC[C@H]2Cc3n[nH]cc3C[C@@H]21 (relative stereo) [trans-dl-5-n-propyl-4,4a,5,6,7,8,8a,9-octahydro-1H and 2H-pyrazolo[3,4-g]quinoline dihydrochloride]",% of Rats Exhibiting Turning Behavior,[1],100% and 75%
same,Average Number of Turns/rat,[1],80 and 66
same,Percent Prolactin Inhibition,prolactin,61 and 91
